Experimental data: publication PMC10084252, “PAF‐induced inflammatory and immuno‐allergic ophthalmic diseases and their mitigation with PAF receptor antagonists: Cell and nuclear effects” (Biofactors (Oxford, England), 2022)

Amino acid sequences for entries named in this document (tags omitted). A change or cut given only in a name is not applied to a line headed by its entry.
UniProt P25105: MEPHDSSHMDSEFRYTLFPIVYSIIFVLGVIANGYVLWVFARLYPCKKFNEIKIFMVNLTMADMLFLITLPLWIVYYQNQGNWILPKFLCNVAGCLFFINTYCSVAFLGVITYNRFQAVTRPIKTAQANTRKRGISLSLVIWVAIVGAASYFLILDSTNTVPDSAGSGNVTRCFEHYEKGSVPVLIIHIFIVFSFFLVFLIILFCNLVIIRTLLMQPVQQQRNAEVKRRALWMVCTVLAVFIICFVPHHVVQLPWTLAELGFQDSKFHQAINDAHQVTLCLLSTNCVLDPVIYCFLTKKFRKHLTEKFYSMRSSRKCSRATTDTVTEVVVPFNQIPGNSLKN

How the values were obtained:
PAF receptor [1] = biological target: T1, PAF receptor (Homo sapiens, UniProt P25105); assay: [3H]‐WEB‐2086 binding to human platelet membranes; conditions: read-out: [3H]‐WEB‐2086 binding inhibition constant (Ki, nM; Mean ± SEM)
T1 construct: from tissue; host or cells: human platelet membranes
Excerpt: TABLE 2 [^3H]‐PAF and [^3H]‐WEB‐2086 binding inhibition constants obtained from human platelet membranes. | column: [^3H]‐WEB‐2086 binding inhibition constant (K i , nM; Mean ± SEM)

PAF receptor [2] = biological target: T1, PAF receptor; assay: [3H]‐PAF binding to human platelet membranes; conditions: read-out: [3H]‐PAF receptor binding inhibition constant (Ki, nM; Mean ± SEM)
Excerpt: FIGURE 5 Pharmacological profile of PAR receptor binding to platelet membranes.

CCCCCCCCCCCCCCCCCCNC(=O)OCC(COC(=O)N(Cc1cccc[n+]1CC)C(C)=O)OC (centres unmarked) [CV‐6209]
Ki (PAF receptor [1]): 66.3 ± 11.3 nM | Ki (PAF receptor [2]): 215 ± 12.9 nM
